Assay results as given in PubChem BioAssay AID504357 (The Scripps Research Institute Molecular Screening Center, 2011).
The entries are a selection whose mix differs from that of the whole data set. Activity calls are given as the source filed them. No stated cut-off is given here; in the data, active means inhibition above about 22% (passing the limit was not always enough); inactive means the rest.

The chains behind the UniProt entries cited, without tags or fusion partners.
UniProt P35372, whole entry, looked up: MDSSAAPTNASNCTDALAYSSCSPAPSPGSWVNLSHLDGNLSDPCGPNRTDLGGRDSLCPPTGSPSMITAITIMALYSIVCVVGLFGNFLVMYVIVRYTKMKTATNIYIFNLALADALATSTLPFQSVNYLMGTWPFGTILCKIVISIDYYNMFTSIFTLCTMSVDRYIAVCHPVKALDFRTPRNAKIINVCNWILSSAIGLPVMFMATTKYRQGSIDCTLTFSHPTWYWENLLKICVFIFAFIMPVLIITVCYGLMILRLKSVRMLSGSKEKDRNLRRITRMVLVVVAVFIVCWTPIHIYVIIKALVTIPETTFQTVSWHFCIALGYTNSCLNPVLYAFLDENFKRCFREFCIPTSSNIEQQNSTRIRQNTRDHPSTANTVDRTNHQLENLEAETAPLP
UniProt P41143, whole entry, looked up: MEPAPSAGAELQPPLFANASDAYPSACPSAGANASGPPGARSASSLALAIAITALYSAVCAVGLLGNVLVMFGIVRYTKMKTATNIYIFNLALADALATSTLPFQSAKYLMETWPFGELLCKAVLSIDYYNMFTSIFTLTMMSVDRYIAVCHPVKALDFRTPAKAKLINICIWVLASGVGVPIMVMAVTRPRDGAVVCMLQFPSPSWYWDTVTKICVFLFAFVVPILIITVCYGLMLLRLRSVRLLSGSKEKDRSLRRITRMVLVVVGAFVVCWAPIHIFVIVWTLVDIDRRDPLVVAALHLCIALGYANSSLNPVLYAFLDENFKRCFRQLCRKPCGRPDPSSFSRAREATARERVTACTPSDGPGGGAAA

Molecular target: Mu-type opioid receptor (Homo sapiens) + Delta-type opioid receptor (Homo sapiens) (UniProt P35372+P41143)
Assay: inverse agonists of MOR-DOR heterodimerization, primary screen, cell-based, luminescence (AID 504357);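 further: 0% = cells with DMSO and 100% = wells without cells with DMSO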
Settings: cell-based MOR-DOR heterodimer luminescence, inverse agonism; at 9.3 µM; active compounds read high

| Compound | inhibition |
| --- | --- |
| CC(C)[C@H](NC(=O)N1CCn2c1nc1ccccc12)C(=O)NC1CC1 | inactive: 11.4% |
| COc1cccc(NC(=O)[C@H](CC(C)C)NC(=O)N2CCn3c2nc2ccccc23)c1 | inactive: 3.97% |
| O=C(Cn1cnc2c(NC(=O)OCc3ccccc3)ncnc21)NCCN1CCOCC1 | inactive: 7.99% |
| CC(C)NC(=O)Cn1c(SCC(=O)NC2CCCC2)nc2ccccc21 | inactive: 19.9% |
| N=c1n(CCN2CCCC2)c2ccccc2n1CC(O)c1ccc(Cl)c(Cl)c1 (stereo unspecified) | inactive: -10% |
| C=CCn1c(=O)c2c(nc3n2CCN3c2cccc(Cl)c2C)n(C)c1=O | inactive: 13.5% |
| O=C(c1ccccc1)N1CCn2c(nc3ccccc32)C1 | inactive: 5.45% |
| O=[N+]([O-])c1ccc2c(c1)nc1n2CCN(c2ccccc2)C1 | inactive: 10.7% |
| CCc1ccc(S(=O)(=O)N2c3ccc(C)cc3C3CN(C)CCC32)cc1 (stereo unspecified) | inactive: 8.13% |
| CCc1cccc(C)c1N(C(=O)Cn1c(COC)nc2ccccc21)C(C)COC (stereo unspecified) | inactive: 12.3% |
| Cc1ccc(NC(=O)CCC(=O)N/N=C/C=C/c2ccccc2)cc1 | inactive: -11.2% |
| CC(C)NC(=O)Cn1c(SCC(=O)N2CCCc3ccccc32)nc2ccccc21 | inactive: 10.7% |
| Cc1nc2ccccc2n1CC(=O)N/N=C\c1ccccn1 | inactive: -11.3% |
| CCN1C(=O)C2(Nc3ccccc3-c3nc4ccccc4n32)c2cc(OC)ccc21 (stereo unspecified) | inactive: 0.82% |
| O=C(Cn1cnc2c(NC(=O)OCc3ccccc3)ncnc21)NCc1ccccn1 | inactive: 5.19% |
| Cc1nc2ccccc2n1CC(=O)NN | inactive: -0.02% |
| CCc1ccc(NC(=O)Cn2c(SC)nc3ccccc32)cc1 | inactive: 2.37% |
| CCC(C)N(CC(C)C)C(=S)SC(NC(C)=O)C(Cl)(Cl)Cl (stereo unspecified) | inactive: 4.05% |
| CC1CC(C)CN(C(=O)Cn2c(SCC(=O)N3CCc4ccccc4C3)nc3ccccc32)C1 (stereo unspecified) | inactive: 2.05% |
| COc1ccccc1NC(=O)Cn1cnc2c1c(=O)n(C)c(=O)n2C | inactive: 11.1% |
| COc1ccc(N2C(=O)CC(n3cnc4ccccc43)C2=O)cc1 (stereo unspecified) | inactive: 10.8% |
| Cc1ccc2c(c1)C1CN(C)CCC1N2C(=O)Cc1cccs1 (stereo unspecified) | inactive: -8.49% |
| CN1C(=O)C2(Nc3ccccc3-c3nc4ccccc4n32)c2ccccc21 (stereo unspecified) | inactive: 15% |

| Compound | inhibition |
| --- | --- |
| CCC(C)[C@H](NC(=O)N1CCn2c1nc1ccccc12)C(=O)NCc1ccccc1 (stereo partly specified) | inactive: -9.02% |
| Cc1ccc(NC(=O)Cn2cnc3ccccc32)cc1C | inactive: 2.51% |
| CSc1nc2ccccc2n1CC(=O)Nc1ccccc1 | inactive: 9.34% |
| Cc1nc2ccccc2n1CCN1CCOCC1 | inactive: 13.3% |
| CCOC(=O)c1ccccc1NC(=O)CSc1nc2ccccc2n1CC(=O)N1CCCC1 | inactive: 6.5% |
| Cc1ccc(-c2csc(NC(=O)Cn3cnc4c3c(=O)n(C)c(=O)n4C)n2)cc1C | inactive: 8.28% |
| Cc1ccc2c(c1)[C@@H]1CN(C)CC[C@@H]1N2C(=O)Nc1cccc(C(F)(F)F)c1 | inactive: -18.5% |
| O=S(=O)(Nc1ccc2c(c1)nc1n2CCN(Cc2ccccc2)C1)c1ccc(F)cc1 | inactive: 11.6% |
| CC1Cc2ccccc2N1C(=O)Cn1cnc2ccccc21 (stereo unspecified) | inactive: 4.47% |
| C[C@H](O)[C@@H]1C(=O)N2CCc3ccc(N4CCN(C)CC4)cc3[C@@H]2C[C@@H]1N(C)C(=O)c1ccc(C#N)cc1 | inactive: -3.16% |
| CCN(CC)CCn1c(NC(=O)c2ccc(C(F)(F)F)cc2)nc2ccccc21 | inactive: -5.14% |
| Cn1c(=O)c2c(nc(CN3CCOCC3)n2CCN2CCOCC2)n(C)c1=O | inactive: 0.12% |
| CCN(CC)C(=O)Cn1c(=O)n(Cc2ccccc2Cl)c2c1c(=O)n(C)c(=O)n2C | inactive: 1.44% |
| CCc1cccc(C)c1N(C(=O)Cn1c(=O)[nH]c2ccccc21)C(C)COC (stereo unspecified) | inactive: -2.49% |
| O=C(OC1CN2CCC1CC2)c1cccc([N+](=O)[O-])c1 (stereo unspecified) | inactive: 8.82% |
| CCC(C)[C@H](NC(=O)N1CCn2c1nc1ccccc12)C(=O)NCC1CCCO1 (stereo partly specified) | inactive: 9% |
| CCCCOc1ccccc1NC(=O)Cn1c(-c2nonc2N)nc2ccccc21 | inactive: -22.9% |
| CSc1nc(N)nc2c1ncn2CC(=O)N1CCN(Cc2c(C)cc(C)cc2C)CC1 | inactive: -69.7% |
| COc1cccc(CNc2nc3ccccc3n2CCN2CCCCC2)c1OC | inactive: -13.5% |
| CCN(CC)C(=O)Cn1cnc2c1c(=O)n(C)c(=O)n2C | inactive: 9.1% |
| CC(C)N(C(=O)Cn1c(Cl)nc2ccccc21)C(C)C | inactive: 8.12% |
| CCC(NC(=O)Cn1cnc2c(=O)n(C)c(=O)n(C)c21)c1ccccc1 (stereo unspecified) | inactive: 6.07% |
| O=C1Cn2c(nc3ccccc32)-c2ccccc2N1 | inactive: 1.94% |

| Compound | inhibition |
| --- | --- |
| COc1ccc(CCNC(=O)[C@H](CC(C)C)NC(=O)N2CCn3c2nc2ccccc23)cc1OC | inactive: 2.71% |
| O=C(c1ccccc1Cl)N1CCn2c1nc1ccccc12 | inactive: 13% |
| Cc1ccc2c(c1)C1CN(C)CCC1N2C(=O)COc1ccc(S(=O)(=O)N2CCOCC2)cc1 (stereo unspecified) | inactive: 7.2% |
| CCOC(=O)c1ccc(NC(=O)C(C)(CCl)SC)cc1 (stereo unspecified) | inactive: 10.6% |
| O=C(Cn1c(-c2cscn2)nc2ccccc21)Nc1cc(F)ccc1F | inactive: 8.96% |
| Cc1ccc2c(c1)C1C[N+](C)(CC(=O)c3ccc(Cl)cc3Cl)CCC1N2C(=O)c1ccc(F)cc1 (stereo unspecified) | inactive: 3.28% |
| CN1CCC2(CC1)Nc1nc(SCc3ccc(Cl)cc3)nn1C1=C2CN(C)CC1 | inactive: 10.6% |
| Cc1ccc(SCc2nc3ccccc3n2CC(=O)Nc2ccc(Cl)cc2)cc1 | inactive: -17.6% |
| Cc1cc(N2C(=O)CC(N3CCC(n4c(=O)[nH]c5ccccc54)CC3)C2=O)no1 (stereo unspecified) | inactive: 6.49% |
| CC(C)NC(=O)Cn1c(SCC(=O)N2CCc3ccccc3C2)nc2ccccc21 | inactive: -8.03% |
| COc1cc(Cl)c(C)cc1NC(=O)Cn1c(NCCO)nc2ccccc21 | inactive: 13.1% |
| CCOCCn1c(=O)c2c(nc3n2CCN3c2ccc(CC)cc2)n(C)c1=O | inactive: 16.9% |
| N#CCC(=O)N/N=C\c1ccc(OC/C=C/c2ccccc2)cc1 | inactive: -11.8% |
| FC(F)(F)c1cccc(-n2nnnc2C2(N3CCOCC3)CCCCC2)c1 | inactive: 8.49% |
| Cc1ccc2c(c1)C1CN(C)CCC1N2C(=S)Nc1cccnc1 (stereo unspecified) | inactive: 7.64% |
| CC(C)(C)C(=O)NC(Sc1ncccn1)C(Cl)(Cl)Cl (stereo unspecified) | inactive: 2.09% |
| Cn1c(=O)c2ncn(CC(=O)Nc3cc(C(F)(F)F)ccc3N3CCOCC3)c2n(C)c1=O | inactive: 12% |
| CCCC(=O)Nc1nnc(/C=C/c2ccccc2)s1 | inactive: 9.29% |
| Cn1c(=O)c2c(ncn2CC(=O)Nc2nnc(Cc3ccccc3)s2)n(C)c1=O | inactive: 9.27% |
| C[C@H](O)[C@@H]1C(=O)N2CCc3ccc(N4CCOCC4)cc3[C@@H]2C[C@@H]1N(C)C(=O)C(C)(C)C | inactive: -1.83% |
| O=C(NCCn1c(C(F)(F)F)nc2cc(C(F)(F)F)ccc21)[C@H]1CCCN1c1nc(CN2CCCCC2)cs1 | inactive: 10.1% |
| Cc1cc(C)cc(NC(=O)Cn2c(-c3ccccc3Cl)nc3ccccc32)c1 | inactive: -3.37% |
| Brc1cccc(CNc2nc3ccccc3n2CCN2CCOCC2)c1 | inactive: 3.33% |

| Compound | inhibition |
| --- | --- |
| Cc1ccc(CNC(=O)CCCCCNC(=O)N2CCn3c2nc2ccccc23)cc1 | inactive: 5.53% |
| S=C(Nc1ccccc1)N1CCn2c(nc3ccccc32)C1 | inactive: 2.63% |
| Cc1ccc(CSc2nc3ccncc3n2CC(=O)Nc2cc(C)cc(C)c2)cc1 | inactive: -36.1% |
| NNC(=O)Cn1c(-c2nonc2N)nc2ccccc21 | inactive: -34.4% |
| Clc1n[nH]nc1-c1nn[nH][15n]1 | inactive: 12.7% |
| COc1ccc(/C=N/NC(=O)Cn2c(Cc3ccc(OC)c(OC)c3)nc3ccccc32)cc1OC | inactive: -11.4% |
| COc1ccc(OCC(O)Cn2c(=N)n(CCN3CCOCC3)c3ccccc32)cc1 (stereo unspecified) | inactive: -10.9% |
| CN(C)CCn1c(NC(=O)c2ccc(Cl)cc2)nc2ccccc21 | inactive: 4.13% |
| O=C(Cn1c(C(F)(F)F)nc2ccccc21)Nc1ccccc1C(=O)O | inactive: 13% |
| COc1ccc(CNC(=O)Cn2cnc3c(SC)nc(N)nc32)cc1 | inactive: 10.5% |
| CCN(CC)CCn1c(NCc2cccc(OC)c2)nc2ccccc21 | inactive: 8.92% |
| O=C(Cn1c(NCCO)nc2ccccc21)NCCc1ccc(F)cc1 | inactive: 9.1% |
| CC(NC(=O)Cn1c(NCCO)nc2ccccc21)C1CC2CCC1C2 (stereo unspecified) | inactive: 16.1% |
| Cn1c(=O)c2c(ncn2CC(=O)N2CCN(c3ccc(F)cc3)CC2)n(C)c1=O | inactive: 13.8% |
| O=C(Cn1c(SCc2ccccc2)nc2ccccc21)N1CCOCC1 | inactive: 13.4% |
| CCCCNC(=O)CC1C(=O)N(Cc2ccccc2)C(C)c2nc3ccccc3n21 (stereo unspecified) | inactive: 9.41% |
| CCOP(=O)(NC(=NC(C)c1ccccc1)NC(C)c1ccccc1)OCC (stereo unspecified) | inactive: 19.8% |
| CC(C)(C)NC(=O)Cn1c(=O)n(CC(=O)NC(C)(C)C)c2ccccc21 | inactive: -4.99% |
| Cn1c(=O)c2c(ncn2CC(=O)N2CCCc3ccccc32)n(C)c1=O | inactive: 6.75% |
| O=P1(Nc2ccccn2)COc2ccccc2OC1 | inactive: 5.9% |
| COc1cccc(CNC(=O)CCCCCNC(=O)N2CCn3c2nc2ccccc23)c1 | inactive: 9.21% |
| CCC1=CC2Cc3nc4ccc(Cl)cc4c(N)c3C(C1)C2 (stereo unspecified) | inactive: -18.2% |
